Assay results from patent US20130345164A1, “TREATMENTS FOR CELLULAR PROLIFERATIVE DISORDERS AND IDENTIFICATION THEREOF” (UNIVERSITY OF MEDICINE AND DENTISTRY OF NEW JERSEY, priority 2010, published 2013).

What was measured:
[1] = Toxicity assays in p53 wild type, p53 null and p53^R172H mice; format: in vivo; details: 10 mg/kg intraperitoneally daily
Protocol: Toxicity assays were performed in p53 wild type, p53 null, and p53^R172H mice to determine if in vivo p53 mutant synthetic lethality could be detected. It was hypothesized that p53^R172H mice would experience greater toxicity for a given dose of NSC319726 as compared to the p53 wild type or null mice.
First, three groups of mice: […], p53^+/R172H/R172H mice, were compared. NSC319726 was injected intraperitoneally at 10 mg/kg daily for seven days.
Next, the dose was lowered to 5 mg/kg and three groups of mice (p53 wild type, p53 null, and p53^R172H/R172H) were compared.

[2] = system: TOV112D-p53R175H, OVCAR3-p53 R248W and SKOV3-p53 null; test: Apoptosis by Annexin V staining in ovarian carcinoma cell lines; format: cell-based, human; details: TOV112D vs OVCAR3 and SKOV3
Source text: Briefly, apoptosis was examined by Annexin V staining using standard methods.

[3] = system: tumor cell lines with endogenous R175H mutations; test: Sensitivity across human tumor cell lines with different p53 hot spot mutations; format: cell-based
Protocol: Next, assays were carried out to examine the sensitivity to NSC319726 of a human tumor cell line system that was made up of 4 cell lines expressing wild type p53, one cell line expressing p53 null cell in (SKOV3), and one ovarian carcinoma cell line containing a p53^R175H (TOV112D). […] Five tumor cell lines with endogenous […] mutations were compared, including two cell lines containing R248W mutations and three cell lines with a R273H mutation.

[4] = system: H460-p53 wildtype, MDAMB468-p53^R273H, HCT116-p53 null and TOV112D-p53^R175H xenograft tumors; test: Mouse xenograft tumor growth; format: in vivo; details: 0.1 μg/g vs 1 μg/g
Protocol: Xenograft tumors were created by subcutaneous flank injections of 8×10^6 human tumor cells and allowed to grow to an initial size ranging from 50-200 mm^3 prior to initiation of NSC319726 (1 μg/g) (versus control, “ctl”) administered intravenously once daily.

C/C(=N\NC(=S)N1CCC1)c1ccccn1 [NSC319726]
mice died by day 3 [1]: all seven
Annexin V staining in TOV112D relative to the other two ovarian cell lines [2]: ~3 fold
sensitivity fold higher than other p53 mutant alleles ([3]; R175H lines (except RXF393) vs R248W and R273H lines): approximately 10 fold
sensitivity fold higher than other p53 mutant alleles, in some instances ([3]; R175H lines vs R248W and R273H lines, some instances): ~100 fold
xenograft growth inhibition at 10-fold lower dose [4]: no difference in growth inhibition
